# Literature values as cited in patent US20190185544A1, “COMPOSITIONS AND METHODS OF MODULATING ABETA PROTEIN” (University of South Florida, priority 2016, published 2019).
# Molecular target: LDLR (Homo sapiens, UniProt P01130)
# Conditions: cited from earlier work
substance,measurement,value
ApoE2: human recombinant apolipoprotein E2 protein (BioVision),LDLR binding activity compared with ApoE3,2%
